# Columns and labels:
# H3255GR cells = assay: Cell viability assay; settings: cetuximab alone 1μg/ml or 10μg/ml
# [1] = test system: EGFR-mutant NSCLC patients; settings: cited from earlier work
Compound,effect on cell viability (H3255GR cells),PFS ([1]; osimertinib vs comparator arm gefitinib or erlotinib) [months],"median PFS ([1]; patients with an L858R mutation, comparator arm gefitinib or erlotinib) [months]"
Cetuximab: anti-EGFR antibody that disrupts EGFR dimers,had no effect,–,–
COc1cc2ncnc(Nc3ccc(F)c(Cl)c3)c2cc1OCCCN1CCOCC1 [gefitinib],–,10.2,9.5

# From PMC6664433 (Cancer discovery, 2019)
